Measurements reported in patent publication US20070212677A1, “Identifying off-target effects and hidden phenotypes of drugs in human cells” (Odyssey Thera, Inc., priority 2004, published 2007).

The chains behind the UniProt entries cited, without tags or fusion partners. Residues count along the entry.
UniProt P37231, 29-505: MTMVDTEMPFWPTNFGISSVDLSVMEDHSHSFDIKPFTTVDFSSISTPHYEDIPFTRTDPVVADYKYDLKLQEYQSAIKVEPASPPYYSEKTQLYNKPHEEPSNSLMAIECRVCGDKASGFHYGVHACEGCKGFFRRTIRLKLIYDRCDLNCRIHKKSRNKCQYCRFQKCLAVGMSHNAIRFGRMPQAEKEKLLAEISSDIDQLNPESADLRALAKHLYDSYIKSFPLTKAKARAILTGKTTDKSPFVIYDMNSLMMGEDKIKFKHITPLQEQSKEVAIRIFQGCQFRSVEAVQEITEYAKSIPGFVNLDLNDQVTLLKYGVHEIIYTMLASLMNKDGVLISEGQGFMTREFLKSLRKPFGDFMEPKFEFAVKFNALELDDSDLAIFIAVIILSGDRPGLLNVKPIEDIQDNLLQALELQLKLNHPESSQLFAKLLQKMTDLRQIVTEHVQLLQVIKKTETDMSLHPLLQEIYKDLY

Molecular target: RXR-alpha:PPAR-gamma (Homo sapiens, UniProt P37231)
Assay: RXR-alpha:PPAR-gamma PCA
Details: 480 minutes; FIG. 18

activity on RXRα:PPARγ assay: ligand-specific activity was detected
SMILES: CN(CCOc1ccc(C[C@H](Nc2ccccc2C(=O)c2ccccc2)C(=O)O)cc1)c1ccccn1 [GW1929]
